Assay results taken from US20040086946A1, “Methods of isolation of active compounds and activated targets” (priority 2002, published 2004).

Sequences of proteins named here, by UniProt entry; tags and fusion partners are left off. A change or cut given only in a name is not applied to a line headed by its entry. A line that says so, or that is headed by a name, gives the form on record, which may keep a tag or linker.
UniProt P12314: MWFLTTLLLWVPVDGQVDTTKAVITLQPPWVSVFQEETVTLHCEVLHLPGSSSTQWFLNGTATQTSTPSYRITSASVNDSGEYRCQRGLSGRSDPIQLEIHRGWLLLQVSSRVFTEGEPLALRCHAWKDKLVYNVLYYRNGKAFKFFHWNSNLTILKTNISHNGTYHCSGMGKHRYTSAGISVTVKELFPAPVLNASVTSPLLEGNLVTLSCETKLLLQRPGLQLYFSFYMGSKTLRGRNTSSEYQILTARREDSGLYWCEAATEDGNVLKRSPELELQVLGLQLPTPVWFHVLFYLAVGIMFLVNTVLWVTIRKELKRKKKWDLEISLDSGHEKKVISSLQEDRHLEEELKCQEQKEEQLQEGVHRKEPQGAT
FcR-MC4R (Homo sapiens, UniProt P12314+P32245), UniProt P12314+P32245, fused: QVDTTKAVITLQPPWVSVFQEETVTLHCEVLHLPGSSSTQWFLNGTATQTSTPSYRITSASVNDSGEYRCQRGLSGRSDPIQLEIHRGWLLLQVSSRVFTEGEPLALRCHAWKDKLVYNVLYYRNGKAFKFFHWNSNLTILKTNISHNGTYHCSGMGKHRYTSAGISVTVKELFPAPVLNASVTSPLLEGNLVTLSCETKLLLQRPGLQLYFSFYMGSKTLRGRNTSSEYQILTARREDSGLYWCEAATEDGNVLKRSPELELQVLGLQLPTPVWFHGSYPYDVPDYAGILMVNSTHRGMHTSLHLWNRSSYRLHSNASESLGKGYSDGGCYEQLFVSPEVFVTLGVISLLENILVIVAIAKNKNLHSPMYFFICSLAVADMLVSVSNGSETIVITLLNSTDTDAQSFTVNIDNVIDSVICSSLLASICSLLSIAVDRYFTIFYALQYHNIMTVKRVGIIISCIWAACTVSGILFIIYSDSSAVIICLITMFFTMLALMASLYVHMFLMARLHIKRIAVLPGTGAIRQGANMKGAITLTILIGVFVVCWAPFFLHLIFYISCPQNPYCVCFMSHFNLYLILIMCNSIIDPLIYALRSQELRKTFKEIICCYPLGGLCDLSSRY
UniProt P32245: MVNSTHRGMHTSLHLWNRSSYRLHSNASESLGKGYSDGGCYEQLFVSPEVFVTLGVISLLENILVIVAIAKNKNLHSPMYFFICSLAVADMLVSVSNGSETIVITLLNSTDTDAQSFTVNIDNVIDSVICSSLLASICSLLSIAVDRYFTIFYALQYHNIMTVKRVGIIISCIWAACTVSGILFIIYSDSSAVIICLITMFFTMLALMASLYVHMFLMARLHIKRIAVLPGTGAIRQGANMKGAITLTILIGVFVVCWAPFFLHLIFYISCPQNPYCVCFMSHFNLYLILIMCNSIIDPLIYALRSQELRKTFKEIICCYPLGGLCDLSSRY

Target: T1, FcR-MC4R (Homo sapiens, UniProt P12314+P32245)
T1 construct: extracellular domain (residues 1-292, with its own signal peptide) of human Fc-gammaR1 = CD64 (NM_000566); expressed in transfected cells; host or cells: HEK293
Assay: Activation of FcR-MC4R fusion in transfected HEK293 cells, CRE-luciferase reporter
Type: cell-based
Settings: with versus without Fc::FcR anchor::dock

His Phe Arg Trp [HFRW]
increase in potency to activate MC4R by the addition of the Fc::FcR anchor::dock interaction: ≥ 5 order of magnitude
